# US20130059773A1, “COMPOUNDS FOR THE TREATMENT OF INFLAMMATION AND NEUTROPENIA” (priority 2010, published 2013)
# Target: T1, procaspase-9 (Homo sapiens, UniProt P55211)
# T1 construct: using neutrophil cytosol containing all the apoptosome components, i.e., procaspase-9; endogenous in cells; host or cells: neutrophil cytosol (primary neutrophils)
# T1 sequence (P55211 1-416): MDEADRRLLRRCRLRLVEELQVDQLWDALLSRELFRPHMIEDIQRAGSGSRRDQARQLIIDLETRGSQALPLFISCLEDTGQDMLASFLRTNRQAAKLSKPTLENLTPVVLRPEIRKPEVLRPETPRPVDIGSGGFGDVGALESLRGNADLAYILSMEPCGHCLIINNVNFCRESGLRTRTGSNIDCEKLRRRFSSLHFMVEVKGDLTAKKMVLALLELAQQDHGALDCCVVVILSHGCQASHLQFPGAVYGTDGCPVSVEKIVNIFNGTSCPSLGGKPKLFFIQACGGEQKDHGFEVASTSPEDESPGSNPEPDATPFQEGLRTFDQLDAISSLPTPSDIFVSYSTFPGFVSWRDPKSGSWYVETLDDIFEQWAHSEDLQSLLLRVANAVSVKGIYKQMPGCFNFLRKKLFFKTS
# Assay: In vitro procaspase-9 activation assay using neutrophil cytosol, cytochrome c and dATP
# Format: biochemical
# Parameters: dose or concentration left out as unconfirmed
# Description: That hypothesis was tested by evaluating procaspase-9 cleavage in an in vitro assay, using neutrophil cytosol containing all the apoptosome components, i.e., procaspase-9 and apoptotic protease-activating factor-1 (Apaf-1) as previously described (McStay et al. 2008; Cell Death Differ. 15:322-331). Addition of exogenous purified cytochrome c and dATP triggered procaspase-9 cleavage (37 kDa) in a time-dependent manner, as evidenced by western blot analysis of caspase-9 (FIG. 7E). […] Caspase-9 activation was next investigated in PL985 cells overexpressing PCNA or the interdomain connecting loop mutant. After 6 days of DMF exposure, caspase-9 activity was elevated unlike undifferentiated cells. This caspase-9 activity might correspond to physiological apoptosis of aged neutrophils.
substance,measurement,value
purified PCNA: recombinant human PCNA produced in E. coli and purified,Procaspase-9 cleavage / activation,procaspase-9 cleavage was delayed
